Test results: PubChem BioAssay AID488839 (Broad Institute, 2010)
This is a selection; strong and weak results do not stand in their true shares. Active and inactive are the calls of the source.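 How the source made its calls: active means highest replicate inhibition of at least 50% and at least 75% of replicates reaching 50%; inconclusive means only one of the two criteria met; inactive means both criteria failed.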

Protein sequences, listed by entry. Tags and fused reporters are not part of them.
UniProt Q00535, whole entry, looked up: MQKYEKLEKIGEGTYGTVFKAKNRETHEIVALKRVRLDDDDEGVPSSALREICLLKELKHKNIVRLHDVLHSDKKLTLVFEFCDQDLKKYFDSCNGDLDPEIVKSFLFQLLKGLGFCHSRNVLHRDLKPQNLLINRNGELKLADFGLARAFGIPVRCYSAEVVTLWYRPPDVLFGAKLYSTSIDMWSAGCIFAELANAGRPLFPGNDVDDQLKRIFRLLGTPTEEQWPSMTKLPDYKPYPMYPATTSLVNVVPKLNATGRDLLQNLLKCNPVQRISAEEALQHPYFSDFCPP
UniProt Q15078, whole entry, looked up: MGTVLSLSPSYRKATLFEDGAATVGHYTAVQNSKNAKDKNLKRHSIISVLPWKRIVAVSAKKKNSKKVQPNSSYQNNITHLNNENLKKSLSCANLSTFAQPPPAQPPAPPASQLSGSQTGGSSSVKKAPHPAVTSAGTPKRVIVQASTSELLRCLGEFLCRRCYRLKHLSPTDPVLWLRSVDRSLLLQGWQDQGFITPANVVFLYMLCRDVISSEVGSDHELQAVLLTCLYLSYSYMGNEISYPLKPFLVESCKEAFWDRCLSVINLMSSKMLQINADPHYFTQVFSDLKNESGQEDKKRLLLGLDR

Target: Cyclin-dependent kinase 5 (Homo sapiens) + Cyclin-dependent kinase 5 activator 1 (Homo sapiens) (UniProt Q00535+Q15078)
Test: inhibitors of human CDK5/p35 kinase, primary screen, biochemical, single concentration (AID 488839);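 further: plate controls were DMSO neutral control for no effect and GW8510 at 10 µM for full effect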
Details: Recombinant CDK5/p35, ADP-Glo luminescence, 60 min; at 10 µM; hits give high values

SMILES	inhibition
O=[N+]([O-])c1cc([N+](=O)[O-])c(-c2cnn(-c3ccccc3)c2)c([N+](=O)[O-])c1	inactive: -8.43%
Cc1nc2ccc3ccccc3c2s1.O=[N+]([O-])c1cc([N+](=O)[O-])c(O)c([N+](=O)[O-])c1	inactive: 0.962%
O=[N+]([O-])c1cc([N+](=O)[O-])c(-n2nnc3ccccc32)c([N+](=O)[O-])c1	inactive: 0.368%
CN1CCCCC1COC(=O)C1(O)c2ccccc2CCc2ccccc21 (configuration not stated)	inactive: -1.13%
COc1ccccc1OP(C)(=O)Nc1c(C)cccc1C (configuration not stated)	inactive: -0.781%
CP(=O)(Nc1ccc(SC(F)(F)F)cc1)Oc1ccccc1 (configuration not stated)	inactive: 1.33%
CCCOc1ccc(NP(C)(=O)Oc2ccc(Cl)cc2)cc1 (configuration not stated)	inactive: -0.168%
O=[N+]([O-])c1cc([N+](=O)[O-])c(Nc2nnnn2CCO)c([N+](=O)[O-])c1	inactive: 1.12%
CC1=C2N=C(C=C3N=C(C(C)=C4[N-][C@@](C)([C@@H]5N=C1[C@](C)(CCC(=O)NC[C@@H](C)OP(=O)([O-])O[C@H]1[C@@H](O)[C@@H](n6cnc7cc(C)c(C)cc76)O[C@@H]1CO)[C@H]5CC(N)=O)[C@@](C)(CC(N)=O)[C@@H]4CCC(N)=O)[C@@](C)(CC(N)=O)[C@@H]3CCC(N)=O)C(C)(C)[C@@H]2CCC(N)=O.[C-]#N.[Co+3]	inactive: 1.59%
CCOC(=O)C(CC)C1=NC(C)(C)Cc2ccccc21.O=[N+]([O-])c1cc([N+](=O)[O-])c(O)c([N+](=O)[O-])c1 (configuration not stated)	inactive: -2.6%
CC1=NCCc2c1[nH]c1ccccc21.O=[N+]([O-])c1cc([N+](=O)[O-])c(O)c([N+](=O)[O-])c1	inactive: 0.0737%
O=C(O)c1cccc(Nc2c([N+](=O)[O-])cc([N+](=O)[O-])cc2[N+](=O)[O-])c1	inactive: -0.499%
CP(=O)(Nc1cccc(Br)c1)Oc1ccccc1 (configuration not stated)	inactive: -0.725%
Cc1cc(C)cc(OP(C)(=O)Nc2ccccn2)c1 (configuration not stated)	inactive: 0.608%
Cc1ccc(C)c(NP(C)(=O)Oc2ccccc2)c1 (configuration not stated)	inactive: 0.335%
COc1ccccc1OP(C)(=O)Nc1cccc(Br)c1 (configuration not stated)	inactive: 1.17%
Cc1cc(C)cc(OP(C)(=O)Nc2ccc(C)cc2C)c1 (configuration not stated)	inactive: -0.994%
CCOC(=O)c1ccc(NP(C)(=O)Oc2cc(C)cc(C)c2)cc1 (configuration not stated)	inactive: -1.83%
CCN(CC)CCCOC(=O)C(O)(c1ccccc1)c1ccccc1	inactive: 0.0604%

SMILES	inhibition
COc1ccccc1OP(C)(=O)Nc1ccc(C)cc1 (configuration not stated)	inactive: -1.21%
Cc1ccc(NP(C)(=O)Oc2ccccc2)c(C)c1 (configuration not stated)	inactive: -0.223%
COc1ccccc1OP(C)(=O)Nc1cc(Cl)ccc1C (configuration not stated)	inactive: -0.501%
COc1ccc(OP(C)(=O)Nc2cccc(F)c2)cc1 (configuration not stated)	inactive: 2.4%
Cc1cc(C)cc(OP(C)(N)=O)c1 (configuration not stated)	inactive: -2.34%
O=[N+]([O-])c1cc([N+](=O)[O-])c(Nc2cccnc2)c([N+](=O)[O-])c1	inactive: 1.23%
CC(C)(C)c1ccc(OP(C)(=O)Nc2ccc(SC(F)(F)F)cc2)cc1 (configuration not stated)	inactive: -4.52%
Cc1cccc(C)c1OP(C)(N)=O (configuration not stated)	inactive: 1.15%
O=[N+]([O-])c1ccc2c(c1)C=Nc1ccccc1O2	inactive: 0.125%
CP(=S)(Nn1cnnc1)Oc1ccccc1 (configuration not stated)	inactive: 0.569%
COc1ccccc1OP(C)(=O)Nc1ccccc1 (configuration not stated)	inactive: 0.271%
CP(=O)(Nc1ccccc1Br)Oc1ccccc1 (configuration not stated)	inactive: 0.481%
CCOP(C)(=S)SCC(=O)NC(C)C(=O)O (configuration not stated)	inactive: -0.387%
CCOC(=O)c1ccc(NP(C)(=O)Oc2ccc(OC)cc2)cc1 (configuration not stated)	inactive: 0.647%
CP(=O)(Nc1ccccn1)Oc1ccc(Cl)cc1 (configuration not stated)	inactive: -0.519%
Cc1cccc(C)c1OP(C)(=O)Nc1ccc(SC(F)(F)F)cc1 (configuration not stated)	inactive: 0.932%
CP(=O)(Oc1ccccc1)OC(c1ccccc1)C(F)(F)F (configuration not stated)	inactive: 1.19%
CCc1ccc(OP(C)(=O)N2CCN(c3ccc([N+](=O)[O-])cc3)CC2)cc1 (configuration not stated)	inactive: -2.92%
CP(=O)(NC(=O)Nc1ccccc1)Oc1ccccc1 (configuration not stated)	inactive: 7.25%

SMILES	inhibition
Cc1cc(C)cc(OP(C)(=O)Nc2ccc(SC(F)(F)F)cc2)c1 (configuration not stated)	inactive: 0.399%
CP(=O)(Nc1ccc(Cl)cc1)Oc1ccc(F)cc1 (configuration not stated)	inactive: 1.68%
CC(C)(C)c1ccc(OP(C)(=O)O)cc1	inactive: -2.23%
COc1ccccc1OP(C)(=O)Nc1ccccc1Br (configuration not stated)	inactive: -1.75%
CN(C)C(=O)c1c([N+](=O)[O-])cc([N+](=O)[O-])cc1[N+](=O)[O-]	inactive: -0.251%
CCN(CC)CC(O)COC(=O)C(O)(c1ccccc1)C1CCCCC1 (configuration not stated)	inactive: 1.98%
COc1ccc(OP(C)(=O)Nc2ccc(Br)cc2)cc1 (configuration not stated)	inactive: -5.38%
CP(=O)(Oc1ccccc1)N1CCOC1=O (configuration not stated)	inactive: 1.38%
CCc1ccc(OP(C)(=O)Nc2cccnc2)cc1 (configuration not stated)	inactive: 0.748%
COc1ccccc1OP(C)(=O)Nc1c(C)n(C)n(-c2ccccc2)c1=O (configuration not stated)	inactive: -0.363%
O=C(OCCCN1CCCC1)C(O)(c1ccccc1)C1CCCCC1 (configuration not stated)	inactive: -1.25%
CP(=O)(OC12CC3CC(CC(C3)C1)C2)OC12CC3CC(CC(C3)C1)C2	inactive: 0.785%
CCOC(=O)c1ccc(NP(C)(=O)Oc2ccc(Cl)cc2)cc1 (configuration not stated)	inactive: -0.127%
CP(=O)(OCCOc1ccccc1)OCCOc1ccccc1	inactive: 2.17%
CCCCCCCCCCCCCCCC1C[N+](C)(C)CCOP(C)(=O)O1 (configuration not stated)	inactive: 0.669%
CP(=O)(Nc1ccc(Cl)cc1Cl)Oc1ccccc1 (configuration not stated)	inactive: -0.325%
O=C1C(O)=C([N+](=O)[O-])C(=O)C(O)=C1[N+](=O)[O-]	inactive: -0.986%
Cc1cc(C)cc(OP(C)(=O)Nc2cccc(C(F)(F)F)c2)c1 (configuration not stated)	inactive: -0.481%
COc1ccc(OP(C)(=O)Nc2ccccc2Br)cc1 (configuration not stated)	inactive: 2.53%
